Results published in ChEMBL document CHEMBL1124775 (J Med Chem, 1990).

assay: Binding affinity (Ki) was determined towards Opioid receptors by competition with [3H]diprenorphine in rat whole brain membrane preparation

| Structure (SMILES) | Ki |
| --- | --- |
| CO[C@]12CC[C@@]3(C[C@@H]1C(C)(C)O)[C@H]1Cc4ccc(O)c5c4[C@@]3(CCN1C[C@@H](C)CF)[C@H]2O5 | 18.9 nM |
| CO[C@]12CC[C@@]3(C[C@@H]1C(C)(C)O)[C@H]1Cc4ccc(O)c5c4[C@@]3(CCN1CCCCF)[C@H]2O5 | 10.7 nM |
| CO[C@]12CC[C@@]3(C[C@@H]1C(C)(C)O)[C@H]1Cc4ccc(O)c5c4[C@@]3(CCN1C[C@H](C)CF)[C@H]2O5 | 10.8 nM |
